Source: patent publication US20220009906A1, “ISOINDOLIN-1-ONE DERIVATIVES USEFUL AS GRK2 INHIBITORS” (priority 2020, published 2022)
pIC50: −log10 of the molar value.

The chains behind the UniProt entries cited, without tags or fusion partners.
UniProt P25098, whole entry: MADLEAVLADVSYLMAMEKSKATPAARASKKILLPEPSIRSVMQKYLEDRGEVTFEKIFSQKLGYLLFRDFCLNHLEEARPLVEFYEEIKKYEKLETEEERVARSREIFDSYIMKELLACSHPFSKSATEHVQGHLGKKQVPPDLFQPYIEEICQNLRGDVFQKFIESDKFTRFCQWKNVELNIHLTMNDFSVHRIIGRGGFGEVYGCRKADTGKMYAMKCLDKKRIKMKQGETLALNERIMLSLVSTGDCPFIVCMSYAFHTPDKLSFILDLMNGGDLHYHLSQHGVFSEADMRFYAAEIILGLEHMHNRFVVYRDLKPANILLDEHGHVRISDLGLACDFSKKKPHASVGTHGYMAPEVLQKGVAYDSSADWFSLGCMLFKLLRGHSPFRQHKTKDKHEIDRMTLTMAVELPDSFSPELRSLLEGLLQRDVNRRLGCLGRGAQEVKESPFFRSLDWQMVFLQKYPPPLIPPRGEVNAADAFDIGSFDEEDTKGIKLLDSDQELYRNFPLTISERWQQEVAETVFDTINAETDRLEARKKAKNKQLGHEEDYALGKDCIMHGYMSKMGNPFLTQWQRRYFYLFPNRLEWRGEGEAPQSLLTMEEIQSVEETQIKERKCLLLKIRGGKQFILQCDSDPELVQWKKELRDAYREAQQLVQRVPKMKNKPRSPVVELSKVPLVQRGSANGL

Target: GRK2 (Homo sapiens, UniProt P25098)
Assay: hGRK2 LANCE Ultra In Vitro Assay
Assay type: biochemical
Conditions: read-out: Biological Example 1 GRK2 Lancer IC50; 10 nM GRK2; 30 or 600 μM ATP (not stated which); multiple measurements listed individually

| SMILES | pIC50 |
| --- | --- |
| C[C@H](c1cccc(C(=O)O)c1)N1Cc2ccc(-c3cn[nH]c3)cc2C1=O | < 4.70 |
| Cc1cccc(C)c1CNC(=O)c1cccc(CN2C(=O)c3cc(-c4cn[nH]c4)ccc3C23CCCC3)c1 | > 8.30 |
| C#CCOc1cccc(CN2Cc3ccc(-c4cn[nH]c4)cc3C2=O)c1 | > 8.30 |
